The source of these data is ChEMBL document CHEMBL1649517, “Effect of MexXY overexpression on ceftobiprole susceptibility in Pseudomonas aeruginosa” (2009).

The subject of assay [1] is Pseudomonas aeruginosa. The settings on record: isolate OC16827.
For assay [2], the system named is Pseudomonas aeruginosa. The conditions noted are these: isolate OC16830.

Turning to GENTAMICIN, the MIC in assay [1] and in assay [2] was 0.5 µg/mL in each case.

By MIC is commonly meant the smallest concentration in the dilution series that meets the test's criterion for growth inhibition. High values mean a less susceptible organism, low ones a more susceptible organism.
